Earlier results, collected in patent EP4509142A1, “FGFR4 AS TARGET IN CANCER TREATMENT” (Ona Therapeutics S.L., priority 2023, dated 2025).

Tested on: HR+/HER2-low BC
Conditions: in less than 10 months; Modi et al., NEJM 2022; cited from earlier work

trastuzumab deruxtecan
proportion of patients who progress: 50%
